# Reference: PubChem BioAssay AID652031 (The Scripps Research Institute Molecular Screening Center, 2013)
# Amino acid sequences for entries named in this document (tags omitted). A change or cut given only in a name is not applied to a line headed by its entry.
# UniProt P41145: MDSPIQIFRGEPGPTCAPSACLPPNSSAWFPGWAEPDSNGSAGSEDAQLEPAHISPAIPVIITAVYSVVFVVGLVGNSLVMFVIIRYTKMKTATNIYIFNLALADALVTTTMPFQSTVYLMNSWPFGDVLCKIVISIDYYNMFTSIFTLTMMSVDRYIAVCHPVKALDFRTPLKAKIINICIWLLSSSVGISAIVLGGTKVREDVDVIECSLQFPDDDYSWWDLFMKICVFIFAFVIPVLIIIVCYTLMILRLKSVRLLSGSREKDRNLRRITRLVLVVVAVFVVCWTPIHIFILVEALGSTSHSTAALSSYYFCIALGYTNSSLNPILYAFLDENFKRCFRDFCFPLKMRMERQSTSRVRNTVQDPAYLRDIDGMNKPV
# This is a selection; strong and weak results do not stand in their true shares. Calls of active or inactive are those of the source. Rule as the data show it: active = inhibition above about 50%; inactive = the rest.
# Biological target: Kappa-type opioid receptor (Homo sapiens) (UniProt P41145)
# Assay: blocks the human kappa opioid receptor, Maybridge compounds (AID 652031)
# Conditions: OPRK1 cells, antagonist mode, fluorescence readout; at 9 µM; stronger effect = higher value
row,SMILES,inhibition
1,CN1CCC2(N3CCOCC3)C(C1)N=NN2c1cc(C(F)(F)F)cc(C(F)(F)F)c1 (stereo not drawn),inactive: 19%
2,CCC(=O)OCCC(=O)N1C=Cc2ccccc2C1C#N (stereo not drawn),inactive: 12.7%
3,O=C(OC1CN2CCC1CC2)c1cccc([N+](=O)[O-])c1 (stereo not drawn),inactive: -12.4%
4,COC(=O)c1ccc2c(c1)nnn2C1CCN(Cc2ccccc2)CC1,inactive: 10.8%
5,COc1ccc(OCCC(=O)N/N=C/C=C/c2ccccc2)cc1,inactive: 1.1%
6,CCOC(=O)/C(=N/Nc1ccc([N+](=O)[O-])cc1)N1CC1,inactive: -4.1%
7,Cn1c(NC2CCN(Cc3ccccc3)CC2)cc(=O)n(C)c1=O,inactive: 20.8%
8,OC(CSc1ccccc1)CN1CCC(Nc2nccc(C(F)(F)F)n2)CC1 (stereo not drawn),inactive: 5.5%
9,O=c1[nH]c2ccccc2n1C1CCNCC1,inactive: 12.2%
10,Cn1c(=O)c2c(nc3n2CCN3CCO)n(C)c1=O,inactive: 10.7%
11,COc1ccc(OCCC(=O)NNC(=O)/C=C/c2ccc3c(c2)OCO3)cc1,inactive: -10.3%
12,c1ccc(CN2CCC(Nc3ncnc4scc(-c5ccccc5)c34)CC2)cc1,inactive: -15.7%
13,CC1(C)c2ccccc2N2CCC(=O)NC21/C=C/c1cccs1 (stereo not drawn),inactive: 16.1%
14,N#Cc1c(F)cccc1NC1CCN(Cc2ccccc2)CC1,inactive: 2.6%
15,CC1CN(CCn2cnc3c(N)ncnc32)CC(C)O1 (stereo not drawn),inactive: -3.3%
16,CC(C)c1nc2ccccc2n1C1CC(=O)N(c2ccc(Cl)cc2)C1=O (stereo not drawn),inactive: -3%
17,Cc1csc2c(NC3CCN(Cc4ccccc4)CC3)ncnc12,active: 52.8%
18,c1ccc(CN2CCC3(CC2)Nc2ccccc2S3)cc1,inactive: 6.9%
19,O=[N+]([O-])c1ccccc1NC1CCN(Cc2ccccc2)CC1,inactive: 22.7%
20,FC(F)(F)c1ccnc(NC2CCN(Cc3ccccc3)CC2)n1,inactive: 9.1%
21,OC(COc1ccc(Cl)c(Cl)c1)CN1CCC(Nc2nccc(C(F)(F)F)n2)CC1 (stereo not drawn),inactive: 9.2%
22,Cn1c(=O)c2c(ncn2CCN2CCOCC2)n(C)c1=O,inactive: 11.1%
23,CC(NCCn1cnc2c(N)ncnc21)c1ccccc1 (stereo not drawn),inactive: 18.2%
